One block for each binder: values may come before it.
What was measured:
[1] = biological target: tau peptide W1805 (residues 52-71) (human, C-terminal amide); experiment: crystal structure
[2] = biological target: tau peptide A6940 (residues 42-103) (human, UniProt P10636-8, biotin (position not given)); experiment: ELISA
[3] = biological target: tau peptide A6897 (residues 299-369) (human, UniProt P10636-8, biotin (position not given)); experiment: ELISA
[4] = biological target: T1, tau peptide 2833-1 (residues 299-318) (human); experiment: crystal structure
T1 chain: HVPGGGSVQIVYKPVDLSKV

binding result [1]: binds
B1: CBTAU-28.1 Fab (Fab, V domains shown)
VH: QVQLQQSGAEVKKPGESLKISCEASGYSFTNYWIGWVRQMPGKGLEWMGIIYPGDSDTRYSPPFQGQVTITADRSITTAYLEWSSLKASDTAMYYCARVGRPSKGGWFDPWGQGTLVTVSS
VL: DIQMTQSPDSLAVSLGERATINCESSQTLLYSSNEKNYLAWYQQKPGQPPKLLISWASTPESGVPDRFSGSGSGTSFTLTISSLQAEDVAVYYCQQYYNSPYTFGQGTRLEIK

binding result [2]: binds
B2: CBTAU-28.1 (antibody, V domains shown)
VH: QVQLQQSGAEVKKPGESLKISCEASGYSFTNYWIGWVRQMPGKGLEWMGIIYPGDSDTRYSPPFQGQVTITADRSITTAYLEWSSLKASDTAMYYCARVGRPSKGGWFDPWGQGTLVTVSS
VL: DIQMTQSPDSLAVSLGERATINCESSQTLLYSSNEKNYLAWYQQKPGQPPKLLISWASTPESGVPDRFSGSGSGTSFTLTISSLQAEDVAVYYCQQYYNSPYTFGQGTRLEIK

binding result [3]: binds
B3: CBTAU-27.1 (antibody, V domains shown)
VH: QVQLVESGPEMRKPGESLKISCKTSGYIFSDYWTAWVRQLPGKGLQWMGIIYSGDSDTRYHPSVQGHVTMSTDSSLTTAYLQWSSLKASDTGIYYCARLDARVDAGWQLDSWGQGTLVTVSS
VL: DIQLTQSPDSLAVSLGERATINCKSSQSVFSRDNNKNYLAWYQHKSGQPPKLLFFWASSRESGVSDRFSGSGSGTDFTLTIDNLQAEDVALYYCQHYFNTPHNFGQGTKLEIK

binding result [4]: binds
B4: CBTAU-27.1 Fab (Fab, V domains shown)
VH: QVQLVESGPEMRKPGESLKISCKTSGYIFSDYWTAWVRQLPGKGLQWMGIIYSGDSDTRYHPSVQGHVTMSTDSSLTTAYLQWSSLKASDTGIYYCARLDARVDAGWQLDSWGQGTLVTVSS
VL: DIQLTQSPDSLAVSLGERATINCKSSQSVFSRDNNKNYLAWYQHKSGQPPKLLFFWASSRESGVSDRFSGSGSGTDFTLTIDNLQAEDVALYYCQHYFNTPHNFGQGTKLEIK

— paper doi:10.1101/287003 (bioRxiv, 2018)
